The source of these data is US9125913B2, “Bcl-2-selective apoptosis-inducing agents for the treatment of cancer and immune diseases” (AbbVie Inc., priority 2008, dated 2015).

For this experiment, the system named is GST-Bcl-2. The experiment can be described thus: TR-FRET binding assay, Bcl-2. The conditions noted are these: TR-FRET Ki values. As to the method:
Tb-anti-GST antibody was purchased from Invitrogen (Catalog No. PV4216).
Representative compounds were serially diluted in dimethyl sulfoxide (DMSO) starting at 50 μM (2× starting concentration; 10% DMSO) and 10 μL were transferred into a 384-well plate.
The samples were then mixed on a shaker for 1 minute and incubated for an additional 3 hours at room temperature. For each assay, the probe/antibody and protein/probe/antibody were included on each assay plate as negative and positive controls, respectively. Fluorescence was measured on the Envision (Perkin Elmer) using a 340/35 nm excitation filter and 520/525 (F-Bak peptide) and 495/510 nm (Tb-labeled anti-Histidine antibody) emission filters.
The inhibition constant (Ki) is the dissociation constant of an enzyme-inhibitor complex or a protein/small molecule complex, wherein the small molecule is inhibiting binding of one protein to another protein or peptide. […] Inhibition constants were determined using Wang's equation (Wang Z-X., An Exact Mathematical Expression For Describing Competitive Binding Of Two Different Ligands To A Protein Molecule. FEBS Lett. 1995, 360:111-4).
In general terms: In TR-FRET formats the signal depends on donor and acceptor labels being close together.

With `CC1(C)CCC(CN2CCN(c3ccc(C(=O)NS(=O)(=O)c4cnc(OCC5(F)CCOCC5)c(C#N)c4)c(Oc4cccc5[nH]ncc45)c3)CC2)=C(c2ccc(Cl)cc2)C1` [EXAMPLE 406, 4-(4-{[2-(4-chlorophenyl)-4,4-dimethylcyclohex-1-en-1-yl]methyl}piperazin-1-yl)-N-({5-cyano-6-[(4-fluorotetrahydro-2H-pyran-4-yl)methoxy]pyridin-3-yl}sulfonyl)-2-(1H-indazol-4-yloxy)benzamide], the “Binding selectivity ratio (Bcl-XL Ki/Bcl-2 Ki)” value (from here on “Binding selectivity ratio”) came to 1264.
As to `CC1(C)CCC(CN2CCN(c3ccc(C(=O)NS(=O)(=O)c4cnc(OCC5(F)CCOCC5)c(C(F)(F)F)c4)c(Oc4cccc5[nH]ncc45)c3)CC2)=C(c2ccc(Cl)cc2)C1` [EXAMPLE 410, 4-(4-{[2-(4-chlorophenyl)-4,4-dimethylcyclohex-1-en-1-yl]methyl}piperazin-1-yl)-N-{[6-[(4-fluorotetrahydro-2H-pyran-4-yl)methoxy]-5-(trifluoromethyl)pyridin-3-yl]sulfonyl}-2-(1H-indazol-4-yloxy)benzamide], the “Binding selectivity ratio” value is 1839.
As for `CO[C@H]1CC[C@H](COc2ncc(S(=O)(=O)NC(=O)c3ccc(N4CCN(CC5=C(c6ccc(Cl)cc6)CC(C)(C)CC5)CC4)cc3Oc3cccc4[nH]ncc34)cc2Cl)CC1` [EXAMPLE 414, Trans-N-({5-chloro-6-[(4-methoxycyclohexyl)methoxy]pyridin-3-yl}sulfonyl)-4-(4-{[2-(4-chlorophenyl)-4,4-dimethylcyclohex-1-en-1-yl]methyl}piperazin-1-yl)-2-(1H-indazol-4-yloxy)benzamide], the figure is 13930.52218; as for `CC1(C)CCC(CN2CCN(c3ccc(C(=O)NS(=O)(=O)c4cnc(OCC5(F)CCOCC5)c(F)c4)c(Oc4cccc5[nH]ncc45)c3)CC2)=C(c2ccc(Cl)cc2)C1` [EXAMPLE 416, 4-(4-{[2-(4-chlorophenyl)-4,4-dimethylcyclohex-1-en-1-yl]methyl}piperazin-1-yl)-N-({5-fluoro-6-[(4-fluorotetrahydro-2H-pyran-4-yl)methoxy]pyridin-3-yl}sulfonyl)-2-(1H-indazol-4-yloxy)benzamide], 2569.
Then `CC1(C)CCC(CN2CCN(c3ccc(C(=O)NS(=O)(=O)c4ccc(N[C@@H]5CCN(C(CF)CF)C5)c([N+](=O)[O-])c4)c(Oc4cccc5[nH]ncc45)c3)CC2)=C(c2ccc(Cl)cc2)C1` [EXAMPLE 435, 4-(4-{[2-(4-chlorophenyl)-4,4-dimethylcyclohex-1-en-1-yl]methyl}piperazin-1-yl)-N-{[4-({(3R)-1-[2-fluoro-1-(fluoromethyl)ethyl]pyrrolidin-3-yl}amino)-3-nitrophenyl]sulfonyl}-2-(1H-indazol-4-yloxy)benzamide], with 1935; and `CC1(C)CCC(CN2CCN(c3ccc(C(=O)NS(=O)(=O)c4ccc(NC5CCN(C6CC6)CC5)c([N+](=O)[O-])c4)c(Oc4cccc5[nH]ncc45)c3)CC2)=C(c2ccc(Cl)cc2)C1` [EXAMPLE 436, 4-(4-{[2-(4-chlorophenyl)-4,4-dimethylcyclohex-1-en-1-yl]methyl}piperazin-1-yl)-N-({4-[(1-cyclopropylpiperidin-4-yl)amino]-3-nitrophenyl}sulfonyl)-2-(1H-indazol-4-yloxy)benzamide], with 590.9; and `CC1(C)CCC(CN2CCN(c3ccc(C(=O)NS(=O)(=O)c4ccc(OCC5COCCO5)c([N+](=O)[O-])c4)c(Oc4cccc5[nH]ncc45)c3)CC2)=C(c2ccc(Cl)cc2)C1` (stereo not drawn) [EXAMPLE 447, 4-(4-{[2-(4-chlorophenyl)-4,4-dimethylcyclohex-1-en-1-yl]methyl}piperazin-1-yl)-N-{[4-(1,4-dioxan-2-ylmethoxy)-3-nitrophenyl]sulfonyl}-2-(1H-indazol-4-yloxy)benzamide], with 2373.
On to `CN1CCC(CNc2ccc(S(=O)(=O)NC(=O)c3ccc(N4CCN(CC5=C(c6ccc(Cl)cc6)CC(C)(C)CC5)CC4)cc3Oc3cccc4[nH]cnc34)cc2[N+](=O)[O-])CC1` [EXAMPLE 454, 2-(1H-benzimidazol-4-yloxy)-4-(4-{[2-(4-chlorophenyl)-4,4-dimethylcyclohex-1-en-1-yl]methyl}piperazin-1-yl)-N-[(4-{[(1-methylpiperidin-4-yl)methyl]amino}-3-nitrophenyl)sulfonyl]benzamide], for which the “Binding selectivity ratio” value is 735.2.
As for `CC1(C)CCC(CN2CCN(c3ccc(C(=O)NS(=O)(=O)c4ccc(NC[C@H]5CC[C@H](C#N)CC5)c([N+](=O)[O-])c4)c(Oc4cccc5[nH]cnc45)c3)CC2)=C(c2ccc(Cl)cc2)C1` [EXAMPLE 462, Trans-2-(1H-benzimidazol-4-yloxy)-4-(4-{[2-(4-chlorophenyl)-4,4-dimethylcyclohex-1-en-1-yl]methyl}piperazin-1-yl)-N-[(4-{[(4-cyanocyclohexyl)methyl]amino}-3-nitrophenyl)sulfonyl]benzamide], the figure is 710.8.
